Data published in patent US9567329B2, “High penetration prodrug compositions of 1H-imidazo[4,5-c]quinolin-4-amines and 1H-imidazo[4,5-c]quinolin-4-amine-related compounds and uses thereof” (Techfields Pharma Co., Ltd, priority 2007, dated 2017).

Assays:
[1] = test system: Human breast cancer cells (BCAP-37); settings: at day 45
Description: Human breast cancer cells (BCAP-37, 3-4 mm^3 of tumor tissue was used in each mouse) were subcutaneously xenografted into nude mice (BALB).

[2] = test system: Human breast cancer cells (BCAP-37); test: Antitumor activity, breast cancer xenograft, topical treatment from day 1; settings: 50 μl of 3% topically once per day; after 28 days
Description: Human breast cancer cells (BCAP-37, 4-5 mm^3 of tumor tissue was used in each mouse) were subcutaneous xenografted into nude mice (BALB).

[3] = test system: Human colon cancer cells (LS174J); test: Antitumor activity, colon cancer xenograft, topical treatment from day 1; settings: 50 μl of 3% topically twice per day; after 28 days
Description: Human colon cancer cells (LS174J, 4-5 mm^3 of tumor tissue was used in each mouse) were subcutaneously xenografted into nude mice (BALB).

CC(C)Cn1cnc2c(N)nc3ccccc3c21.Cl [1-isobutyl-1H-imidazo[4,5-c]quinolin-4-amine hydrochloride, reference compound]
average weights of the mice [1]: 22±2 grams | Average weight of mice, Human breast cancer [2]: 22 ± 2 g | Average weight of mice, Human colon cancer [3]: 21 ± 2 g
